Results: US10266806B2, “Stem cell-derived hepatocytes in co-culture and uses thereof” (Colorado State University Research Foundation, priority 2014, dated 2019)

Test system: iHeps in iMPCCs
Conditions: human, 6 days

## CN1CCN(C2=Nc3cc(Cl)ccc3Nc3ccccc32)CC1 [Clozapine]
  TC50 in MPCCs ATP: 57.9 µM
  TC50 in MPCCs Albumin: 27.8 µM
  TC50 in MPCCs Urea: 20.9 µM
